This is an account of results in ChEMBL document CHEMBL1133341, “ORL1 receptor ligands: structure-activity relationships of 8-cycloalkyl-1-phenyl-1,3,8-triaza-spiro[4.5]decan-4-ones” (Bioorg Med Chem Lett, 2000).

Chains of the proteins cited; added tags and fusions are not shown.
UniProt P34975, whole entry: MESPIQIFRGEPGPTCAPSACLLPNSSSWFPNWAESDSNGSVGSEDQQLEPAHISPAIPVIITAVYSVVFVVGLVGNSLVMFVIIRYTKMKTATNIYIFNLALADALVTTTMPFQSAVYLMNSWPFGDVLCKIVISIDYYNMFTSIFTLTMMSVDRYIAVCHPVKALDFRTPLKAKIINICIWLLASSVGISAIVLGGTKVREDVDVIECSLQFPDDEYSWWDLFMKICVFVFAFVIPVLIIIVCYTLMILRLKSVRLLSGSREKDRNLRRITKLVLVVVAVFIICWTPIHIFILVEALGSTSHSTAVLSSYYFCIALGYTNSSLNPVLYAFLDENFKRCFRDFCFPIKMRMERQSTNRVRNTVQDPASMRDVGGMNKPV
UniProt P33535, whole entry: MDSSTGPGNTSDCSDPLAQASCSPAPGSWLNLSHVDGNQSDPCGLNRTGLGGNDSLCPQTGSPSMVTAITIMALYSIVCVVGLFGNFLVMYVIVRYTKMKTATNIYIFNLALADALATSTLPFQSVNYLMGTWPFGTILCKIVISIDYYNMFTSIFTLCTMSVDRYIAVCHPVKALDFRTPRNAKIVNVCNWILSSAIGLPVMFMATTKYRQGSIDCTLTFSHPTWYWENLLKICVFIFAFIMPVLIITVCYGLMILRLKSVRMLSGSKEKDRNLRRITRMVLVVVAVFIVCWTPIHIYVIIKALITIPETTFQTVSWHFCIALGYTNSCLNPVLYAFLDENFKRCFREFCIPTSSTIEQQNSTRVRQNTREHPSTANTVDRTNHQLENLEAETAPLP
UniProt P33533, whole entry: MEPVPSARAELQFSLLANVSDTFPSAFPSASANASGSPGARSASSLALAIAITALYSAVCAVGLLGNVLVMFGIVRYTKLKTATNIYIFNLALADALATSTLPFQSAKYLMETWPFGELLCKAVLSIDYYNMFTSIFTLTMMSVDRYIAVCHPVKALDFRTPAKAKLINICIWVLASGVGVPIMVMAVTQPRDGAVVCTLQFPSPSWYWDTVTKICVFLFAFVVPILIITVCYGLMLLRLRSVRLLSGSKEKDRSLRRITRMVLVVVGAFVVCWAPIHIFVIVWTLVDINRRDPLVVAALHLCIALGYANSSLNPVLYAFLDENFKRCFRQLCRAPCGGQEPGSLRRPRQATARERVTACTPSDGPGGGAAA
UniProt P35370, whole entry: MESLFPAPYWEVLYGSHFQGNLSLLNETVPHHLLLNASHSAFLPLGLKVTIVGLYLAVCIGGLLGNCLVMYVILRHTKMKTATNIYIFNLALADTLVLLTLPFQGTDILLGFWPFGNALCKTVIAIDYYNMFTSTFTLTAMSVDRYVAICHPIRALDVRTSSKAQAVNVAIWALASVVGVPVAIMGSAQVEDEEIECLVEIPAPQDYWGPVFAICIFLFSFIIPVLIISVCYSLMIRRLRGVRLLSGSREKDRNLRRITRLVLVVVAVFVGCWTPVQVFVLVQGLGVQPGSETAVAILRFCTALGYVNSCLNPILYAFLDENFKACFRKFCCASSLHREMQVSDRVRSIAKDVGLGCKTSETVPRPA

By Ki is commonly meant a dissociation constant, usually derived from enzyme kinetics or from competition with a known ligand.

The target in assay [1] is Kappa-type opioid receptor (Rattus norvegicus, UniProt P34975). In words: Inhibition against binding of radioligand [N-allyl-2-3-3H]-naloxone to membrane of baby hamster kidney cells infected with forest virus encoding the cDNAs for rat Opioid receptor kappa 1.
The next assay deals with Mu-type opioid receptor (Rattus norvegicus, UniProt P33535). In words: Inhibition against binding of radioligand [N-allyl-2-3-3H]-naloxone to membrane of baby hamster kidney cells infected with forest virus encoding the cDNAs for rat Opioid receptor mu 1.
Assay [2] deals with Delta-type opioid receptor (Rattus norvegicus, UniProt P33533). Description: Inhibition against binding of radioligand [Ile5,6-3H]-deltorphin to membrane from baby hamster kidney cells infected with forest virus encoding the cDNAs for rat Opioid receptor delta 1.
Assay [3] has as its target T1, Nociceptin receptor (Rattus norvegicus, UniProt P35370). Description: Inhibition against binding of radioligand [leucyl-3H]-OFQ to membrane of human embryonic kidney 293 cells overexpressing rat Opioid receptor like 1. Conditions: hek293.
Assay [4] deals with T1, Nociceptin receptor. Description: pEC50 for its effect on stimulating GTPgammaS binding to membranes of HEK 293 cells overexpressing rat ORL-1 receptor. Conditions: hek293. Background: GTPγS resists hydrolysis and so accumulates on activated G proteins.

For `O=C1NCN(c2ccccc2)C12CCN(C1CCCCCCCC1)CC2`, the Ki in assay [1] is 3.9 nM; at Mu-type opioid receptor it was 3.2 nM; in assay [2], above 200 nM; at Nociceptin receptor [3], 0.24 nM.
For the compound `CCC[C@H]1CC[C@H](N2CCC3(CC2)C(=O)NCN3c2ccccc2)CC1`, the affinity at Nociceptin receptor [3], expressed as Ki, was 52 nM.
`O=C1NCN(c2ccccc2)C12CCN(C1CCCCCCCCCCCCCC1)CC2` gave a Ki at Nociceptin receptor [3] of 600 nM.
As for `O=C1NCN(c2ccccc2)C12CCN(C1CCCCCCC1)CC2`, the Ki in assay [1] was 9.1 nM; at Mu-type opioid receptor, 13 nM; in assay [2], above 200 nM; at Nociceptin receptor [3] it was 1.9 nM.
For `O=C1NCN(c2ccccc2)C12CCN(C1CCCCCCCCCC1)CC2`, the Ki in assay [1] amounted to 0.82 nM; on Mu-type opioid receptor, 0.21 nM; in assay [2] it was 15 nM; at Nociceptin receptor [3], 0.49 nM.
For `CC(C)[C@H]1CC[C@H](N2CCC3(CC2)C(=O)NCN3c2ccccc2)CC1`, the Ki is 31 nM in assay [1], 8.3 nM at Mu-type opioid receptor, 670 nM in assay [2] and 4.6 nM at Nociceptin receptor [3].
On the same counts, the results for `O=C1NCN(c2ccccc2)C12CCN(C1CCCCCCCCCCC1)CC2` are 2.9 nM, 0.28 nM, 570 nM and 0.95 nM.
As for `CC(C)[C@H]1CC[C@@H](N2CCC3(CC2)C(=O)NCN3c2ccccc2)CC1`, the Ki is 26 nM in assay [1], 3.2 nM at Mu-type opioid receptor, 242 nM in assay [2] and 0.079 nM at Nociceptin receptor [3]. Also, the Log EC50 on Nociceptin receptor [4] was -7.42.
Regarding `CCC[C@H]1CC[C@@H](N2CCC3(CC2)C(=O)NCN3c2ccccc2)CC1`, the inhibition constant (Ki) in assay [1] is 57 nM; on Mu-type opioid receptor, 7.3 nM; in assay [2] it was above 540 nM; at Nociceptin receptor [3], 2 nM.
Take `O=C1NCN(c2ccccc2)C12CCN([C@@H]1Cc3cccc4cccc1c34)CC2`: the inhibition constant Ki in assay [1] came out at 20 nM; at Mu-type opioid receptor, 4 nM; in assay [2] it was 100 nM.
In the case of `O=C1NCN(c2ccccc2)C12CCN(C1CCCCCCCCC1)CC2`, the Ki worked out at 2.1 nM in assay [1], 0.66 nM at Mu-type opioid receptor, 46 nM in assay [2] and 0.082 nM at Nociceptin receptor [3]. This compound also displayed a Log EC50 on Nociceptin receptor [4] of -7.9.
Turning to `O=C1NCN(c2ccccc2)C12CCN([C@H]1CC[C@@H](C3CCCCC3)CC1)CC2`, the inhibition constant (Ki) in assay [1] worked out at 29 nM; on Mu-type opioid receptor, 1.5 nM; in assay [2], 330 nM; at Nociceptin receptor [3] it was 1.5 nM.
As to `CC(C)(C)[C@H]1CC[C@H](N2CCC3(CC2)C(=O)NCN3c2ccccc2)CC1`, the Ki at Nociceptin receptor [3] stood at 12 nM.
Turning to `CC(C)(C)[C@H]1CC[C@@H](N2CCC3(CC2)C(=O)NCN3c2ccccc2)CC1`, the Ki in assay [1] stood at 38 nM; on Mu-type opioid receptor it was 6.7 nM; in assay [2] it was 450 nM; on Nociceptin receptor [3], 3.3 nM.
On to `O=C1NCN(c2ccccc2)C12CCN([C@H]1CC[C@H](C3CCCCC3)CC1)CC2`, for which the Ki on Nociceptin receptor [3] was found to be 320 nM.
